Experimental findings from ChEMBL document CHEMBL5321247, “Discovery of NXT-10796, an orally active, intestinally restricted EP4 agonist prodrug for the treatment of inflammatory bowel disease” (Bioorg Med Chem Lett, 2023) are described below.

For assay [1], the system named is Mus musculus. Description: In vivo agonist activity at EP4 in po dosed C57BL/6J mouse assessed as increase in renin level in plasma at 1 to 5 mg/kg, po measured after 2 hrs. The assay is classed as functional, organism-based. Particulars: dose 1-5 mg/kg.
Assay [2] has as its system Mus musculus. The assay can be described thus: In vivo agonist activity at EP4 in C57BL/6J mouse assessed as increase in Ccl5 expression in colon at 1 to 5 mg/kg, po administered for 3 days by qPCR analysis. The assay is classed as functional, organism-based. Particulars: dose 1-5 mg/kg, time 3.0 day. For orientation: In qPCR the cycle at which signal appears reflects the starting amount.

SMILES strings stand for the structures. The source made the active and inactive calls. The rule behind the calls is not given here.

Consider `O=C(O)CCCCCCN1C(=O)CC[C@@H]1/C=C/[C@@H](O)Cc1ccccc1`, for which the result in the assay on Mus musculus [1] and in the assay on Mus musculus [2] was Active.
